Literature values, collected in patent US20060153844A1, “Methods to trigger, maintain and manipulate immune responses by targeted administration of biological response modifiers into lymphoid organs” (priority 2004, published 2006).

Conditions: 270 patients; cited from earlier work

IL-2: co-stimulatory cytokine, the major T cell growth hormone
Infections: 15 % of patients
adult respiratory distress syndrome: 4 % of patients
died from treatment-related toxicity: 2.2 % of the 270 patients
hypotension: 64 % of patients
life threatening sepsis: 3 % of the patients
respiratory failure, coma: 1 % of patients
supraventricular tachycardia: 17 % of patients
